Earlier results as cited in PMC3933250 (Annals of Oncology, 2014).

Tested on: R/M-SCCHN
Settings: cetuximab added to platinum/5-FU, first-line R/M-SCCHN; cited from earlier work

## Cetuximab
  Improvement of median overall survival (OS) versus chemotherapy alone: 2.7 months
